These results are taken from patent publication US9302996B2, “Continuous arycyclic compound” (MITSUBISHI TANABE PHARMA CORPORATION, priority 2010, dated 2016).

The test concerns C57BL/6J mice. The experiment in a line: Antifeeding activity (high fat diet intake up to 4 hours). It counts as in vivo. The following applies: Mus musculus, male C57BL/6J mice, 5 mg/kg oral, food ingested up to 4 hours, read-out: Antifeeding rate (5 mg/kg).

On to `CC(C)(COc1ccc(-c2ccc(-c3ncc(C(F)(F)F)[nH]3)cn2)cc1)C(=O)O` [Example 1-3), 2,2-dimethyl-3-(4-{5-[5-(trifluoromethyl)-1H-imidazol-2-yl]pyridin-2-yl}phenoxy)propanoic acid], for which the inhibition in vivo at 5 mg/kg is 77%.
